Test results published in BindingDB's records for 14684324.

By UniProt entry, the sequences of proteins in these tests, tags left out.
UniProt P41146, whole entry: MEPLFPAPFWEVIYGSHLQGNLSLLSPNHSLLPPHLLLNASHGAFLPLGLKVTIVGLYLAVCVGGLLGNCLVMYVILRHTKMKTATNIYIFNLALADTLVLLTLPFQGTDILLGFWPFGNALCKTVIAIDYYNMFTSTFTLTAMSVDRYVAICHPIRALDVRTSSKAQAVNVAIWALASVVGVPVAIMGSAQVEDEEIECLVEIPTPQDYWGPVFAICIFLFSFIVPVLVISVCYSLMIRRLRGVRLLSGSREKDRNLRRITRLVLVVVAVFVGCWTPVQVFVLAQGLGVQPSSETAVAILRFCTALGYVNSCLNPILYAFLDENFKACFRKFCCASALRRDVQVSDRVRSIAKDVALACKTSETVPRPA
UniProt P35372, whole entry: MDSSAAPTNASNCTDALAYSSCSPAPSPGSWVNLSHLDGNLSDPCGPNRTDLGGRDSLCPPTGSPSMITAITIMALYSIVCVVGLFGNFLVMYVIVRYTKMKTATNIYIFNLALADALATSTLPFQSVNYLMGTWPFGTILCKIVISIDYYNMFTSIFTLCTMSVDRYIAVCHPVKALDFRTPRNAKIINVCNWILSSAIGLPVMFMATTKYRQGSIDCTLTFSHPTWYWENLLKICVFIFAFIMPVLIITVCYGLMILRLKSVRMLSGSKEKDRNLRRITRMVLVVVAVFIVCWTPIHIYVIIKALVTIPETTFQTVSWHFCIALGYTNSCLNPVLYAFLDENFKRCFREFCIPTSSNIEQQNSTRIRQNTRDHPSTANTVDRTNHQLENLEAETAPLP
UniProt P41145, whole entry: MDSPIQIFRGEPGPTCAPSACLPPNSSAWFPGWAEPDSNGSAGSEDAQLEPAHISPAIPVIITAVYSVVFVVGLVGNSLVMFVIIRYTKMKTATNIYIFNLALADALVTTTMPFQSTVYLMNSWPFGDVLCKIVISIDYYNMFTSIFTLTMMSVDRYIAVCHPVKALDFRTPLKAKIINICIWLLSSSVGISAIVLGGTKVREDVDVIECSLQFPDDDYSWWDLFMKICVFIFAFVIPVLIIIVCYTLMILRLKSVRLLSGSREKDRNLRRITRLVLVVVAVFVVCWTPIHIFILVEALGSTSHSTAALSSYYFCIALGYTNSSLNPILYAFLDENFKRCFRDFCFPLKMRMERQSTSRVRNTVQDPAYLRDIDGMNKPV

Experiments:
Nociceptin receptor = Nociceptin receptor (Homo sapiens, UniProt P41146); test: Concentration required to stimulate [35S]GTP-gamma-S, binding to human NOP receptor in cell membrane
Mu-type opioid receptor = Mu-type opioid receptor (Homo sapiens, UniProt P35372); test: Concentration required to stimulate [35S]GTP-gamma-S, binding to human opioid receptor mu 1 in cell membrane
[1] = molecular target: Kappa-type opioid receptor (Homo sapiens, UniProt P41145); test: Concentration required to stimulate [35S]GTP-gamma-S, binding to human opioid receptor kappa 1 in cell membrane

SMILES	EC50 (Nociceptin receptor) [nM]	EC50 (Mu-type opioid receptor) [nM]	EC50 [1] [nM]
O=c1[nH]c2ccccc2n1[C@H]1CCN2[C@H](CCC[C@H]2c2ccccc2)C1	> 10000	> 10000	> 10000
CCn1c(=O)n([C@H]2CCN3[C@H](CCC[C@H]3c3ccccc3)C2)c2ccccc21	> 10000	> 10000	> 10000
CCn1c(=O)n([C@@H]2CCN3[C@H](CCC[C@H]3c3ccccc3)C2)c2ccccc21	165	105	210
O=c1[nH]c2ccccc2n1[C@@H]1CCN2[C@H](CCC[C@H]2c2ccccc2)C1	65	198	4.7
